Test results published in patent US10118930B2, “Piperidinylpyrazolopyrimidinones and their use” (BAYER PHARMA AKTIENGESELLSCHAFT, priority 2015, dated 2018).
pIC50: −log10 of the molar value. Where a name gives a salt, the structure may show the parent alone.

Each molecule was assayed on clot lysis (fibrinolysis) in diluted human citrated plasma, tPA-induced (assay: Plasma-based clot lysis assay (5%)). Details: human citrated platelet-poor plasma 5%, fibrinogen 3 μM, CaCl2 10 mM, tPA 0.2 nM, 37° C., OD at 405 nm.
Format: biochemical
Experimental: B-2. Plasma-based Clot Lysis Assay (5%)
The clot-lysis test system configures the kinetics of clot formation and degradation in vitro and allows quantifying modulation of the process by selected test compounds.
The test compounds were dissolved in 1% acetic acid and further complemented with an equal volume of DMSO. The resulting stock solutions were serially diluted in 0.5% acetic acid/50% DMSO. 1 μL aliquots of these solutions were placed into 384 well microplates (Greiner, black, transparent bottom), followed by 30 μL of diluted human citrated plasma (platelet-poor, final concentration: 5%; supplemented with fibrinogen, final concentration: 3 μM; dilution buffer: 20 mM HEPES, 150 mM NaCl, 0.01% Brij (pH 7)). The reactions were started by addition of 20 μL of CaCl2 (final concentration: 10 mM), and tPA (tissue plasminogen activator, final concentration: 0.2 nM) in dilution buffer, followed by an additional volume of 20 μL dilution buffer for improved mixing. The reactions were incubated at 37° C. […] IC50 values were determined by comparing the resulting time courses with the time course of a blank control reaction.

| pIC50 | Structure (SMILES) |
| --- | --- |
| 7.60 | O=c1cc(C2CCNCC2)n2ncc(-c3nc(C4(Cl)CC4)cs3)c2[nH]1 [Example 336, 3-[4-(1-chlorocyclopropyl)-1,3-thiazol-2-yl]-7-(piperidin-4-yl)pyrazolo[1,5-a]pyrimidin-5(4H)-one hydrochloride] |
| 7.55 | Cc1nn2c(C3CCNCC3)cc(=O)[nH]c2c1-c1nnc(C2CCC2)o1 [Example 340, 3-(5-cyclobutyl-1,3,4-oxadiazol-2-yl)-2-methyl-7-(piperidin-4-yl)pyrazolo[1,5-a]pyrimidin-5 (4H)-one hydrochloride] |
| 7.77 | Cc1nn2c(C3CCNCC3)cc(=O)[nH]c2c1-c1nc(C2CC2(C)C)no1 (stereo not shown) [Example 346, 3-[3-(2,2-dimethylcyclopropyl)-1,2,4-oxadiazol-5-yl]-2-methyl-7-(piperidin-4-yl)pyrazolo[1,5-a]pyrimidin-5(4H)-one hydrochloride] |
| 6.80 | O=c1cc(C2CCNCC2)n2ncc(CN3CCOCC3)c2[nH]1 [Example 348, 3-(morpholin-4-ylmethyl)-7-(piperidin-4-yl)pyrazolo[1,5-a]pyrimidin-5(4H)-one hydrochloride] |
| 7.62 | CCCOC(=O)c1cnn2c(C3CCNCC3)cc(=O)[nH]c12 [Example 358, Propyl 5-oxo-7-(piperidin-4-yl)-4,5-dihydropyrazolo[1,5-a]pyrimidine-3-carboxylate hydrochloride] |
| 7.68 | O=C(c1cnn2c(C3CCNCC3)cc(=O)[nH]c12)N1CCC(F)(F)CC1 [Example 362, 3-[(4,4-difluoropiperidin-1-yl)carbonyl]-7-(piperidin-4-yl)pyrazolo[1,5-a]pyrimidin-5 (4H)-one hydrochloride] |
| 6.89 | C[C@H]1CCCN1Cc1cnn2c(C3CCNCC3)cc(=O)[nH]c12 [Example 363, 3-{[(2S)-2-methylpyrrolidin-1-yl]methyl}-7-(piperidin-4-yl)pyrazolo[1,5-a]pyrimidin-5(4H)-one hydrochloride] |
| 7.96 | Cc1nn2c(C3CCNCC3)cc(=O)[nH]c2c1C(=O)OC1CCC1 [Example 364, Cyclobutyl 2-methyl-5-oxo-7-(piperidin-4-yl)-4,5-dihydropyrazolo[1,5-a]pyrimidine-3-carboxylate hydrochloride] |
| 7.60 | Cc1nn2c(C3CCNCC3)cc(=O)[nH]c2c1C(=O)OCC(F)(F)F [Example 367, 2,2,2-trifluoroethyl 2-methyl-5-oxo-7-(piperidin-4-yl)-4,5-dihydropyrazolo[1,5-a]pyrimidine-3-carboxylate hydrochloride] |
| 6.41 | Cc1nn2c(C3CCNCC3)cc(=O)[nH]c2c1C1CC1 [Example 368, 3-cyclopropyl-2-methyl-7-(piperidin-4-yl)pyrazolo[1,5-a]pyrimidin-5(4H)-one hydrochloride] |
| 7.96 | O=c1cc(C2CCNCC2)n2ncc(-c3ccns3)c2[nH]1 [Example 373, 7-(piperidin-4-yl)-3-(1,2-thiazol-5-yl)pyrazolo[1,5-a]pyrimidin-5(4H)-one hydrochloride] |
| 7.49 | O=c1cc(C2CCNCC2)n2ncc(-c3cnc(N4CCOCC4)s3)c2[nH]1 [Example 376, 3-[2-(morpholin-4-yl)-1,3-thiazol-5-yl]-7-(piperidin-4-yl)pyrazolo[1,5-a]pyrimidin-5 (4H)-one hydrochloride] |
| 7.60 | CCC(C)(C)C(=O)c1cnn2c(C3CCNCC3)cc(=O)[nH]c12 [Example 377, 3-(2,2-dimethylbutanoyl)-7-(piperidin-4-yl)pyrazolo[1,5-a]pyrimidin-5(4H)-one hydrochloride] |
| 7.85 | O=c1cc(C2CCNCC2)n2ncc(-c3noc(C4CC4)n3)c2[nH]1 [Example 380, 3-(5-Cyclopropyl-1,2,4-oxadiazol-3-yl)-7-(piperidin-4-yl)pyrazolo[1,5-a]pyrimidin-5(4H)-one hydrochloride] |
| 7.47 | O=c1cc(C2CCNCC2)n2ncc(-c3noc(C(F)(F)F)n3)c2[nH]1 [Example 390, 7-(piperidin-4-yl)-3-(5-(trifluoromethyl)-1,2,4-oxadiazol-3-yl)pyrazolo[1,5-a]pyrimidin-5(4H)-one hydrochloride] |
| 7.52 | CC(C)(c1nc(-c2cnn3c(C4CCNCC4)cc(=O)[nH]c23)no1)C(F)(F)F [Example 391, 7-(piperidin-4-yl)-3-(5-(1,1,1-trifluoro-2-methylpropan-2-yl)-1,2,4-oxadiazol-3-yl)pyrazolo[1,5-a]pyrimidin-5(4H)-one hydrochloride] |
| 7.44 | COC1CCN(C(=O)c2c(C)nn3c(C4CCNCC4)cc(=O)[nH]c23)CC1 [Example 403, 3-[(4-methoxypiperidin-1-yl)carbonyl]-2-methyl-7-(piperidin-4-yl) pyrazolo[1,5-a] pyrimidin-5(4H)-one hydrochloride] |
| 7.52 | Cc1nn2c(C3CCNCC3)cc(=O)[nH]c2c1C(=O)N1CCCc2ccccc21 [Example 404, 3-(3,4-dihydroquinolin-1(2H)-ylcarbonyl)-2-methyl-7-(piperidin-4-yl) pyrazolo[1,5-a] pyrimidin-5(4H)-one hydrochloride] |
| 7.34 | Cc1nn2c(C3CCNCC3)cc(=O)[nH]c2c1C(=O)N1CCCC2(CC2)C1 [Example 409, 3-(5-azaspiro [2.5]oct-5-ylcarbonyl)-2-methyl-7-(piperidin-4-yl) pyrazolo[1,5-a] pyrimidin-5(4H)-one hydrochloride] |
| 7.46 | Cc1nn2c(C3CCNCC3)cc(=O)[nH]c2c1C(=O)N1CCc2ccccc2C1 [Example 414, 3-(3,4-dihydro-isoquinolin-2(1H)-ylcarbonyl)-2-methyl-7-(piperidin-4-yl) pyrazolo[1,5-a] pyrimidin-5(4H)-one hydrochloride] |
| 7.46 | Cc1nn2c(C3CCNCC3)cc(=O)[nH]c2c1C(=O)N1CC(C)OC(C)C1 (stereo not shown) [Example 419, 3-[(2,6-dimethyl-morpholin-4-yl)carbonyl]-2-methyl-7-(piperidin-4-yl) pyrazolo[1,5-a] pyrimidin-5(4H)-one hydrochloride] |
| 7.64 | Cc1nn2c(C3CCNCC3)cc(=O)[nH]c2c1C(=O)N1CCOCC1(C)C [Example 427, 3-[(3,3-dimethyl-morpholin-4-yl)carbonyl]-2-methyl-7-(piperidin-4-yl) pyrazolo[1,5-a] pyrimidin-5(4H)-one hydrochloride] |
| 7.51 | Cc1ccccc1CN(C)C(=O)c1c(C)nn2c(C3CCNCC3)cc(=O)[nH]c12 [Example 433, N,2-dimethyl-N-(2-methyl-benzyl)-5-oxo-7-(piperidin-4-yl)-4,5-dihydro-pyrazolo[1,5-a] pyrimidine-3-carboxamide hydrochloride] |
| 8.00 | COc1ccccc1-c1noc(-c2c(C)nn3c(C4CCNCC4)cc(=O)[nH]c23)n1 [Example 437, 3-[3-(2-methoxyphenyl)-1,2,4-oxadiazol-5-yl]-2-methyl-7-(piperidin-4-yl)pyrazolo[1,5-a]pyrimidin-5(4H)-one hydrochloride] |
| 7.64 | Cc1nc(-c2cnn3c(C4CCNCC4)cc(=O)[nH]c23)sc1CC(C)C [Example 443, 3-[4-methyl-5-(2-methylpropyl)-1,3-thiazol-2-yl]-7-(piperidin-4-yl)pyrazolo[1,5-a]pyrimidin-5(4H)-one hydrochloride] |
| 6.44 | Cc1sc(-c2ccccc2)nc1-c1cnn2c(C3CCNCC3)cc(=O)[nH]c12 [Example 450, 3-(5-methyl-2-phenyl-1,3-thiazol-4-yl)-7-(piperidin-4-yl)pyrazolo[1,5-a]pyrimidin-5 (4H)-one hydrochloride] |
| 7.60 | CCCOC(=O)c1c(SC)nn2c(C3CCNCC3)cc(=O)[nH]c12 [Example 470, Propyl 2-(methylsulfanyl)-5-oxo-7-(piperidin-4-yl)-4,5-dihydropyrazolo[1,5-a]pyrimidine-3-carboxylate hydrochloride] |

Same assay, conditions: human citrated platelet-poor plasma 5%, fibrinogen 3 μM, CaCl2 10 mM, tPA 0.2 nM, 37° C., OD at 405 nm; hydrochloride

| Structure (SMILES) | pIC50 |
| --- | --- |
| CCOC(=O)c1c(C)nn2c(C3CCNCC3)cc(=O)[nH]c12 [Example 396, Ethyl 2-methyl-5-oxo-7-(piperidin-4-yl)-4,5-dihydropyrazolo[1,5-a]pyrimidine-3-carboxylate hydrochloride] | 7.40 |
